Our source for the IC50 values is ChEMBL document CHEMBL2203175, “Discovery and optimization of sulfonyl acrylonitriles as selective, covalent inhibitors of protein phosphatase methylesterase-1” (J Med Chem, 2011).

Where a chain is given by its changes, count along the chain named.

Experiment [1] concerns the target T1, Protein phosphatase methylesterase 1 (Mus musculus, UniProt Q8BVQ5).
T1 sequence (Q8BVQ5 whole entry): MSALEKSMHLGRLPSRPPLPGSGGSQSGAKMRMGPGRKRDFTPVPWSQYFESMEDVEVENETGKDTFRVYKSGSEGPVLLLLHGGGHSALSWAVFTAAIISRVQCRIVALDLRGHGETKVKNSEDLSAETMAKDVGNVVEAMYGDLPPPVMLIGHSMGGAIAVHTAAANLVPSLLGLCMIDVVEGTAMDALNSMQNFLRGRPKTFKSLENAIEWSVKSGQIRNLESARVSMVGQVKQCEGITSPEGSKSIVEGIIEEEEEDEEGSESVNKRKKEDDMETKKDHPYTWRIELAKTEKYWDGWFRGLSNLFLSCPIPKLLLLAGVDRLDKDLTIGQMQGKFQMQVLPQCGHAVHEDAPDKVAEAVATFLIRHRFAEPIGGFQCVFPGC
Nature of the experiment: Inhibition of PME1 binding to FP-rhodamine in mouse brain soluble proteome after 45 mins by gel-based competitive activity-based protein profiling assay.

Experiment [2] concerns the target T2, Protein phosphatase methylesterase 1 (Homo sapiens, UniProt Q9Y570).
T2 sequence (Q9Y570 whole entry): T1 sequence (Q8BVQ5 whole entry) with T42S, G114S, S123P, V150I, A167S, A168S, V268I, N269S
Description: Inhibition of PME1 binding to FP-rhodamine in human HEK293T cells after 45 mins by fluorescence polarization activity-based protein profiling assay. It counts as cell-based, HEK-293T. (Polarisation of emitted light reports the rotation of a fluorescent probe.)

Experiment [3] concerns the target T2, Protein phosphatase methylesterase 1. Nature of the experiment: Inhibition of PME1 binding to FP-rhodamine in HEK293T cells after 1 hr by fluorescence polarization activity-based protein profiling assay. It counts as cell-based, HEK-293T.

With `N#C/C(=C\c1cccn1S(=O)(=O)c1cccc([N+](=O)[O-])c1)S(=O)(=O)c1ccc(F)cc1`, the IC50 (as a rule, the concentration at which inhibition is half-maximal) worked out at 0.6 µM in experiment [1], 0.6 µM in experiment [2] and 3.5 µM in experiment [3]. As to `N#C/C(=C\c1cccn1S(=O)(=O)c1ccccc1)S(=O)(=O)c1ccc(F)cc1`, the IC50 in experiment [1] came out at 4.8 µM. Same read-out and setting: with `CS(=O)(=O)/C(C#N)=C/c1cccn1S(=O)(=O)c1ccc(Cl)cc1` the figure was 3 µM.
